AlphaSeq binding of Ab-95 light chain variants to a spike HR2 peptide

Source: Engelhart et al. 2022 (doi:10.1038/s41597-022-01779-4), MIT Lincoln Laboratory and A-Alpha Bio; data file from the FLAb repository.

All variants were tested on one target, the spike HR2 peptide PDVDLGDISGINAS (SARS-CoV-2).

Parent scFv Ab-95: VH joined to VL by the linker GGGGSGGGGSGGGGS. Changes lie in the light chain CDRs alone.
VH: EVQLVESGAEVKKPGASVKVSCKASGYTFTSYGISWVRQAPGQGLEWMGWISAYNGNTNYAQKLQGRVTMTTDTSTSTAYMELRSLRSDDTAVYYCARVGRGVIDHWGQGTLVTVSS
VL: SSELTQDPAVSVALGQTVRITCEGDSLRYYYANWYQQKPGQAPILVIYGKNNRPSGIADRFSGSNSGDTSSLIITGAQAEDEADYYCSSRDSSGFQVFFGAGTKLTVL

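Phage display of a naive human antibody library on the peptide gave the parent. AAYL52 was designed without a model: most single CDR substitutions and a random sample of double and triple ones. The scFvs were displayed on barcoded MATa yeast, the peptide on MATalpha yeast. Mating (16 h, 30 °C) was followed by selection of diploids and sequencing of their barcodes. Each replicate has its own calibration line, from reference interactions of the BCL2 family. There are three technical replicates.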

Substitutions are numbered in sequence along the VL above, starting at 1 (not Kabat).
Scale: log10 of Kd in nM, estimated from mating counts; low values are strong binders.
Replicates are averaged; those with no signal do not enter the mean.
A pair that was not seen in that replicate is written "nd"; this usually means weak binding, but a binder can also be missed.
Background: pairings of library AAYL52 with three empty control strains gave a value in 28% of cases (median 3.91, 5th percentile 2.90). Values in that range, when seen in few replicates, are hard to tell from nonspecific mating. Also given: how often the same scFv was detected with the empty control strains, with their mean in brackets.
Parent in this assay: reference entry 2.31, copy in this library 2.25.

| # | changes | log10 Kd, replicates | mean, log10 nM | empty controls |
|---|---|---|---|---|
| 1 | E23D N33F S88M | nd 3.84 nd | 3.84 | 0 of 9 |
| 2 | R90S D91W V97A | 4.55 nd nd | 4.55 | 1 of 9 (4.23) |
| 3 | Y31P N51Y D91K | 4.00 nd nd | 4.00 | 2 of 9 (4.23) |
| 4 | N52P S93F G94P | 5.53 5.72 nd | 5.63 | 2 of 9 (3.66) |
| 5 | S26K N51E V97E | nd nd nd | nd | 2 of 9 (3.39) |
| 6 | K50P N52P F95N | 4.31 4.31 4.44 | 4.35 | 3 of 9 (4.58) |
| 7 | A32R N33I F95D | 3.40 nd nd | 3.40 | 1 of 9 (4.98) |
| 8 | K50Q R90H S92A | 2.87 3.92 nd | 3.40 | 2 of 9 (4.00) |
| 9 | Y29Q Y31H N33C | nd nd nd | nd | 5 of 9 (4.14) |
| 10 | S89A V97N | 2.27 2.51 2.83 | 2.54 | 1 of 9 (2.77) |
| 11 | L27H N33F G94D | 4.40 nd nd | 4.40 | 4 of 9 (3.68) |
| 12 | E23G D91W V97T | nd 3.88 nd | 3.88 | 2 of 9 (4.48) |
| 13 | L27N N51M P54S | 3.09 3.38 nd | 3.23 | 3 of 9 (4.63) |
| 14 | L27M Y29R P54D | nd nd nd | nd | 2 of 9 (4.07) |
| 15 | Y31W N33M G94K | 2.87 2.71 1.97 | 2.52 | 0 of 9 |
| 16 | N52Y R53H S88W | 3.80 3.25 2.02 | 3.03 | 7 of 9 (4.36) |
| 17 | G24M R28H N33R | 3.69 4.20 4.59 | 4.16 | 4 of 9 (4.09) |
| 18 | G24S G94C Q96S | 3.34 2.70 3.68 | 3.24 | 3 of 9 (3.97) |
| 19 | D25H Y30T S88Q | 2.10 1.84 1.67 | 1.87 | 3 of 9 (4.24) |
| 20 | G49F S92C G94P | 4.64 nd 3.00 | 3.82 | 1 of 9 (3.80) |
| 21 | Y31T Q96D V97Q | nd 3.43 3.44 | 3.43 | 3 of 9 (3.42) |
| 22 | D91F S92G G94W | 3.02 2.41 2.47 | 2.63 | 2 of 9 (4.54) |
| 23 | S26K K50Q G94I | 4.75 3.57 4.48 | 4.27 | 4 of 9 (3.81) |
| 24 | R28T N33V K50W | 4.21 nd nd | 4.21 | 0 of 9 |
| 25 | N33Y V97C | 4.93 nd nd | 4.93 | 3 of 9 (3.90) |
| 26 | S26K | 3.42 nd nd | 3.42 | 0 of 9 |
| 27 | Y29D S93E F95S | 2.56 2.60 2.66 | 2.61 | 0 of 9 |
| 28 | S26T S55Y S88Q | nd 5.44 3.44 | 4.44 | 2 of 9 (3.11) |
| 29 | Y30S N33E N51W | nd 4.51 3.36 | 3.93 | 5 of 9 (3.90) |
| 30 | S89G S93R G94F | 2.82 2.90 2.38 | 2.70 | 3 of 9 (3.73) |
| 31 | Y30N R90F F98P | 1.10 0.94 0.37 | 0.80 | 5 of 9 (3.63) |
| 32 | R53C P54F G94D | 4.24 4.86 4.50 | 4.54 | 2 of 9 (3.32) |
| 33 | N51G N52A S93I | 3.43 3.42 3.51 | 3.45 | 2 of 9 (4.14) |

The first 4 entries again:

changes	log10 Kd, replicates	mean, log10 nM	empty controls
E23D N33F S88M	nd 3.84 nd	3.84	0 of 9
R90S D91W V97A	4.55 nd nd	4.55	1 of 9 (4.23)
Y31P N51Y D91K	4.00 nd nd	4.00	2 of 9 (4.23)
N52P S93F G94P	5.53 5.72 nd	5.63	2 of 9 (3.66)